This is an account of results in PubChem BioAssay AID2546 (National Center for Advancing Translational Sciences (NCATS), 2010).

Only a part is listed here, and it is no random draw. Inconclusive results are not listed. The source made the active and inactive calls. Calls come from the whole dose curve; as a rule, active = well fitted inhibition curve with a large enough effect; inconclusive = small, poorly fitted or top-dose-only effect, or effect the other way; inactive = flat fitted curve, though single readings scatter.
% is set by controls: 0 for no effect and ±100 for the full control effect; potency is the fitted concentration of half-maximal effect.

This assay in a line: VP16 counterscreen qHTS for inhibitors of ROR gamma transcriptional activity.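 Note: Gal4-VP16 expression switched on by copper sulfate through the metallothionein promoter; nearly all actives have a fitted effect of over 50% in size.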 The note with it: Drosophila S2 Gal4-VP16 UAS-luciferase, luminescence, 20 h; series mostly up to 53.6 µM; activity, negative = inhibition: at the top concentration.
As for `Cc1cccc(OCC(=O)OC2CN3CCC2CC3)c1` (centres undefined), the “activity, negative = inhibition” value is inactive: -1.07%.

For `O=[As](O)(c1cccc(O)c1)c1cccc(O)c1`, the “activity, negative = inhibition” value was inactive: 1.79%.

Turning to `O=C(OC1CN2CCC1CC2)c1ccc(Cl)cc1` (centres undefined), the “activity, negative = inhibition” value was inactive: -6.99%.

Turning to `O=[As](O)(O)c1cccnc1`, the “activity, negative = inhibition” value was inactive: -3.84%.

`COc1cc(C(=O)NCC2(N3CCOCC3)CCCCC2)cc(Cl)c1OC(C)C`: the “activity, negative = inhibition” value is inactive: 2.74%.

With `CS(=O)(=O)c1ccc(Cl)c(NC(=O)COC(=O)C(O)(c2ccccc2)c2ccccc2)c1`, the “activity, negative = inhibition” value was inactive: -2.15%.

With `COc1cc(C2NCCC3(OCCO3)C2(C)C)cc(OC)c1OC` (centres undefined), the “activity, negative = inhibition” value was inactive: -0.976%.

As to `CCOP(=O)(Nc1cccc2ccccc12)OCC`, the “activity, negative = inhibition” value is inactive: 8.26%.

In the case of `Nc1cccc2c([As](=O)(O)O)cccc12`, the “activity, negative = inhibition” value was inactive: 2.03%.

In the case of `CCCOP(=S)(Nc1nc(N)cc(=O)[nH]1)OCCC`, the “activity, negative = inhibition” value was inactive: -3.34%.

As to `O=C(O)COc1ccc([As](=O)(O)O)cc1[N+](=O)[O-]`, the “activity, negative = inhibition” value was inactive: -16.3%.

For `Nc1ccccc1[As](=O)(O)c1ccccc1`, the “activity, negative = inhibition” value is inactive: -1.94%.

`CCOP1(=S)c2c(C)nn(CCC#N)c2N=C(c2ccccc2F)N1C` (centres undefined): the “activity, negative = inhibition” value was inactive: 13.4%.

For `O=P(Nc1nccs1)(Oc1ccccc1)Oc1ccccc1`, the “activity, negative = inhibition” value is inactive: -7.43%.

Consider `O=P(Nc1nccs1)(c1ccccc1)c1nc2ccccc2s1` (centres undefined), for which the Potency is active: 7.94 µM.

Regarding `CS(=O)(=O)c1cc([N+](=O)[O-])c2no[n+]([O-])c2c1`, the Potency is active: 15.8 µM.

Consider `CCOP1(=S)c2c(C)nn(CCC#N)c2N=C(c2ccc(F)cc2)N1C` (centres undefined), for which the “activity, negative = inhibition” value was inactive: 9.41%.

Regarding `CN(C(=O)Cc1ccccc1)[C@@H]1CC[C@]2(CCCO2)C[C@H]1N1CCCC1`, the “activity, negative = inhibition” value is inactive: -7.13%.

Regarding `O=[N+]([O-])c1ccc2c(c1)nnn2O`, the “activity, negative = inhibition” value was inactive: 0.952%.

As for `NC(=O)Nc1ccc([As](=O)(O)O)cc1`, the Potency entry is “inactive”.

For the compound `CN(C)C1(CNC(=O)c2ccc(S(C)(=O)=O)cc2)CCCCC1`, the “activity, negative = inhibition” value is inactive: -3.73%.

For `O=C(/C=C/c1ccccc1)OC1CN2CCC1CC2` (centres undefined), the “activity, negative = inhibition” value was inactive: -0.276%.

With `Cc1nn(-c2ccccc2)c2c1P(=O)(N1CCOCC1)N(C)C(c1ccccc1)=N2` (centres undefined), the “activity, negative = inhibition” value was inactive: -3.4%.

Turning to `Cc1ccc(C(=O)OC2CN3CCC2CC3)cc1` (centres undefined), the “activity, negative = inhibition” value is inactive: -2.09%.

As to `Nc1cccc([As](=O)(O)c2ccccc2)c1`, the “activity, negative = inhibition” value is inactive: 3.11%.

With `O=[As](O)(c1cccs1)c1cccs1`, the “activity, negative = inhibition” value is inactive: 5.2%.

With `Cc1ccc(OCC(=O)OC2CN3CCC2CC3)cc1` (centres undefined), the “activity, negative = inhibition” value was inactive: -15.5%.

In the case of `O=P1(Nc2ccc(Br)cn2)COc2ccccc2OC1`, the “activity, negative = inhibition” value is inactive: 6.84%.

Regarding `Clc1n[nH]nc1-c1nn[nH][15n]1`, the “activity, negative = inhibition” value is inactive: -7.36%.

On to `CCC1=CC2Cc3nc4ccc(Cl)cc4c(N)c3C(C1)C2` (centres undefined), for which the “activity, negative = inhibition” value is inactive: -22.1%.

With `O=P1(Nc2ccccn2)COc2ccccc2OC1`, the “activity, negative = inhibition” value was inactive: 0.397%.

For `CCOP(=O)(NC(=NC(C)c1ccccc1)NC(C)c1ccccc1)OCC` (centres undefined), the “activity, negative = inhibition” value was inactive: 8.75%.

Turning to `CCOP(=O)(Nc1ccc(C)cn1)OCC`, the “activity, negative = inhibition” value is inactive: -3.07%.

Take `CN(C(=O)Cc1ccc(Cl)c(Cl)c1)[C@@H]1CCCC[C@H]1N1CCCC1`: the “activity, negative = inhibition” value was inactive: -2.82%.

Take `CC(C)/C=N\N=C(\N)N[N+](=O)[O-]`: the “activity, negative = inhibition” value is inactive: -0.433%.

As for `O=[As](O)(c1ccccc1Br)c1ccccc1Br`, the “activity, negative = inhibition” value is inactive: -2.1%.

`O=C(COc1ccccc1)OC1CN2CCC1CC2` (centres undefined): the “activity, negative = inhibition” value is inactive: -0.481%.

In the case of `O=C(Nc1ccncc1[N+](=O)[O-])c1ccc([N+](=O)[O-])cc1[N+](=O)[O-]`, the “activity, negative = inhibition” value was inactive: -10.7%.

On to `COP1(=S)c2c(C)nn(CCC#N)c2N=C(c2ccc(F)cc2)N1C` (centres undefined), for which the “activity, negative = inhibition” value was inactive: -5.27%.

`O=C(OC1CN2CCC1CC2)c1cccc([N+](=O)[O-])c1` (centres undefined): the “activity, negative = inhibition” value is inactive: -7.54%.

For `CCOC(=O)c1ccc(NC(=O)C(C)(CCl)SC)cc1` (centres undefined), the “activity, negative = inhibition” value was inactive: 6.37%.

Take `CCCCOc1ccc(C(=O)NCC2(N3CCCCC3)CCCCC2)cc1OC`: the “activity, negative = inhibition” value was inactive: -2.16%.

On to `CCOC(=O)Nc1ccc([As](=O)(O)O)c(O)c1`, for which the “activity, negative = inhibition” value is inactive: -0.181%.

For the compound `Cc1cc(SC(NC=O)C(Cl)(Cl)Cl)ncn1` (centres undefined), the “activity, negative = inhibition” value is inactive: -6.57%.

With `O=P(Nc1ccccn1)(c1cccc2ccccc12)c1cccc2ccccc12`, the activity, negative = inhibition is inactive: 1.88% [at 10 µM].

As to `CN(N=O)C(=N)N[N+](=O)[O-]`, the “activity, negative = inhibition” value is inactive: -14.5%.

For the compound `O=[N+]([O-])c1ccc(Nc2ccc(Oc3ccc([N+](=O)[O-])cc3[N+](=O)[O-])cc2)c([N+](=O)[O-])c1`, the “activity, negative = inhibition” value is inactive: -0.0443%.

Regarding `CCOC(=O)Nc1cccc([As](=O)(O)O)c1`, the “activity, negative = inhibition” value was inactive: -1.51%.

Take `Cc1ccc(OP(=O)(Nc2ccc([N+](=O)[O-])cn2)Oc2ccc(C)cc2)cc1`: the “activity, negative = inhibition” value was inactive: 4.84%.

`Cc1ccc2nc3c(c(C)c2c1)CC(C(Cl)Cl)S3` (centres undefined): the “activity, negative = inhibition” value is inactive: 29.5%.

As for `C[As](=O)(O)c1cccc(C(=O)O)c1`, the “activity, negative = inhibition” value was inactive: -4.63%.

`CC(C)NC(=O)NP(=O)(Oc1ccccc1)Oc1ccccc1`: the “activity, negative = inhibition” value was inactive: -22.7%.

In the case of `CCN(CC)C(=S)SC(NC=O)C(Cl)(Cl)Cl` (centres undefined), the “activity, negative = inhibition” value is inactive: 9.11%.

As for `O=[N+]([O-])c1cc([N+](=O)[O-])c(-c2ccn[nH]2)s1`, the Potency is active: 12.6 µM.

`ClCCSc1nnc(-c2cccnc2)o1`: the “activity, negative = inhibition” value was inactive: -3.62%.

Consider `CC(C)c1ccc(OP(=O)(Nc2ccccn2)Oc2ccccc2F)cc1` (centres undefined), for which the “activity, negative = inhibition” value was inactive: 1.44%.

Turning to `COc1ccc2nc(NP(=O)(c3ccccc3)c3ccccc3)sc2c1`, the “activity, negative = inhibition” value is inactive: -15%.

On to `COc1cc(I)ccc1[As](=O)(O)O`, for which the “activity, negative = inhibition” value is inactive: -7.89%.

Regarding `Cc1c2c(nc3ccccc13)SC(C(Cl)Cl)C2` (centres undefined), the “activity, negative = inhibition” value is inactive: -5.04%.

Take `O=C(OC1CN2CCC1CC2)C12CC3CC(CC(C3)C1)C2` (centres undefined): the “activity, negative = inhibition” value was inactive: 2.8%.

On to `Cc1cc(=O)[nH]c(N[N+](=O)[O-])n1`, for which the “activity, negative = inhibition” value is inactive: -5.13%.

Turning to `COc1ccc(N/C(=N/P(=O)(N2CCOCC2)N2CCOCC2)N2CCOCC2)cc1`, the “activity, negative = inhibition” value was inactive: -5.57%.

Consider `CN1CCCC(OC(=O)C(c2ccccc2)c2ccccc2)C1` (centres undefined), for which the “activity, negative = inhibition” value was inactive: -13.9%.

Turning to `Clc1ccc(Cl)c(NC2=NCC(CBr)S2)c1` (centres undefined), the “activity, negative = inhibition” value is inactive: -2.82%.
